Screening results as filed in PubChem BioAssay.
Most compounds without a hit are left out; they make up all but 2.3% or so of the library.
ARFGAP1 inhibitor – inhibits rat ARF GTPase activating protein 1; Q62848; Arfgap1-stimulated ARF1 GTP hydrolysis, GDP FP detection; inhibition, % at 16.5 µM; hit rate 0.26% among 360,000;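 active = inhibition above a per-plate limit, mean inhibition of low control wells plus 3 SD, cut at about 25% in these data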;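 also: 0% = DMSO wells with enzyme and 100% = wells lacking Arfgap1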
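system = rat Arfgap1 catalytic domain, aa 1-136 | technique = FP, GDP Alexa 633 tracer displaced from anti-GDP antibody, 620/688 nm | compound = one concentration, 16.5 µM, DMSO 1.26% | medium = HEPES-based buffer, pH 7.5 | timing = compound-enzyme preincubation 20 min, reaction 120 min, detection 60 min, 25 °C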
ASAP1 GAP inh – inhibitors of human ASAP1 ArfGAP activity | Q9ULH1 | hit rate 0.19% among 360,000 | inhibition, % at 16.5 µM | ASAP1-stimulated ARF1 GTP hydrolysis, GDP FP detection; in the data active = inhibition above about 25%;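 also: 0% = vehicle with enzyme and substrate and 100% = no enzyme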
UUG fidelity – alters start codon recognition fidelity in yeast. 350,000 tested, 0.13% active. activity score, % at 18.7 µM. S. cerevisiae UUG-firefly luciferase reporter, luminescence/redox ratio;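 active = replicate mean at a twofold rise or more, about +100% in these data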;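 also: firefly luciferase made from a UUG start codon reports start codon fidelity; reporter light over untreated wells divided by growth signal over untreated wells; some hits fall short of that in this replicate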
NRP1-CendR mod – alters CendR peptide binding to human NRP-1. inhibition, % at 25 µM. hit rate 0.85% among 360,000. AID 602438. O14786. FAM-RPARPAR peptide binding to NRP-1, fluorescence polarization;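 active = inhibition or corrected inhibition above about 18%, plus a signal ratio from 0.5 to 1.5, limit read from the data, passing the limit was not always enough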
MC4R ag barr – human MC4R agonism via beta-arrestin; P32245; U2OS MC4R beta-arrestin complementation, luminescence; percent of melanotan II response, DMSO zero; activation, % at 8.9 µM; hit rate 0.98% among 360,000; AID 540308;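 active = activation above a per-plate cutoff, the mean activation of sample wells on that plate plus 3 SD, cut at about 8% in these data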
MC4R antag cAMP – blocks human MC4R cAMP signaling; P32245; inhibition, % at 6.5 µM; MC4R-expressing cells, MTII-stimulated cAMP, LANCE TR-FRET; hit rate 0.48% among 360,000;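 active = inhibition above its plate's cutoff, the mean of tested wells on that plate plus 3 SD, cut at about 29% in these data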;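 also: 0% = Melanotan II alone and 100% = Melanotan II plus saturating MCL0020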
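Test system: U2OS cells stably expressing human melanocortin 4 receptor (MC4R); also added: Melanotan II challenge; compound: 6.5 µM single dose; timing: 30-min compound preincubation, 1-h Melanotan II challenge, 1-h detection, room temperature; signal: Eu-cAMP/anti-cAMP TR-FRET, emission 671 nm; repeats: one well per compound, no replicates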
Numbers without * were called inactive; nt = no result; ! = not active in a repeat.

(1) O=C(Nc1ccc(N2CCCC2)cc1)c1cc(Br)ccc1Cl
(2) CS(=O)(=O)c1ccc(C(=O)Nc2ccc(N3CCCC3)cc2)c(Cl)c1
(3) Cc1cc(C(=O)Nc2cccc3c2O[C@@H](CN(C)C)[C@H](C)CN([C@H](C)CO)C3=O)n(C)n1
(4) CC(NCCOCCOc1ccccc1)c1ccccc1 (centres undefined)
(5) c1ccc(OCCOCCOc2ccccc2)cc1
(6) O=S(=O)(NCc1csc(-c2cccs2)n1)c1cccs1

| entry no. | 1 | 2 | 3 | 4 | 5 | 6 |
| --- | --- | --- | --- | --- | --- | --- |
| ARFGAP1 inhibitor | 32* | 10 | nt | -19 | 4 | 3 |
| ASAP1 GAP inh | 22 | -4 | nt | -21 | 0 | -2 |
| UUG fidelity | 1 | -14 | -2 | nt | -16 | nt |
| NRP1-CendR mod | -25 | -3 | nt | 26* | 13 | 35* |
| MC4R ag barr | 0 | -3 | nt | 0 | 0 | -1 |
| MC4R antag cAMP | 7 | 4 | nt | 6 | -6 | 4 |

(7) CN(C)C(=O)C[C@H]1CC[C@@H](NC(=O)c2ccc(F)cc2)[C@H](CO)O1
(8) Cc1cc(N)c(C)c([N+](=O)[O-])c1C
(9) Cc1c(N)c(C(C)(C)C)cc(C(C)(C)C)c1[N+](=O)[O-]
(10) C[C@@H]1CN([C@@H](C)CO)C(=O)c2cc(C#Cc3ccncc3)cnc2O[C@H]1CN(C)Cc1ccncc1
(11) C[C@H]1CN=C(N(C)C)N1CCC1CCCCC1
(12) C[C@H]1CN=C(N(C)C)N1CCCC1CCCC1

| entry no. | 7 | 8 | 9 | 10 | 11 | 12 |
| --- | --- | --- | --- | --- | --- | --- |
| ARFGAP1 inhibitor | nt | -9 | 14 | nt | 0 | -1 |
| ASAP1 GAP inh | nt | -16 | -17 | nt | -10 | 0 |
| UUG fidelity | -15 | nt | nt | 5 | -3 | -20 |
| NRP1-CendR mod | nt | 31* | 1 | nt | 30* | 14 |
| MC4R ag barr | nt | -1 | 4 | nt | -2 | 0 |
| MC4R antag cAMP | nt | 3 | 5 | nt | 3 | -2 |

Complete entries, looked up by structure.
`C[C@@H]1CN([C@@H](C)CO)C(=O)c2cc(C#Cc3ccncc3)cnc2O[C@H]1CN(C)Cc1ccncc1` across the screens: ARFGAP1 inhibitor: nt; ASAP1 GAP inh: nt; UUG fidelity: 5; NRP1-CendR mod: nt; MC4R ag barr: nt; MC4R antag cAMP: nt
`C[C@H]1CN=C(N(C)C)N1CCCC1CCCC1` across the screens: ARFGAP1 inhibitor: -1; ASAP1 GAP inh: 0; UUG fidelity: -20; NRP1-CendR mod: 14; MC4R ag barr: 0; MC4R antag cAMP: -2

(continued)
(13) CCN(CCn1cccn1)C(=O)CCc1nnc(Cc2c[nH]c3ccccc23)o1
(14) CCN(CCn1cccn1)C(=O)CCc1nnc(-c2ccccc2)o1
(15) Cc1ccc(S(=O)(=O)N2CCN(CC(=O)N(CC(C)C)c3c(N)n(CC(C)C)c(=O)[nH]c3=O)CC2)c(C)c1
(16) O=C(Cn1cnc2c(OCc3ccccc3)ncnc21)NCCN1CCOCC1
(17) O=C(Cn1cnc2c(NC(=O)OCc3ccccc3)ncnc21)NCCN1CCOCC1
(18) C[C@H](CO)N1C[C@H](C)[C@@H](CN(C)C(=O)Nc2ccc(F)cc2)OCCCC[C@H](C)Oc2ccc(NC(=O)Nc3cccc4ccccc34)cc2C1=O

| entry no. | 13 | 14 | 15 | 16 | 17 | 18 |
| --- | --- | --- | --- | --- | --- | --- |
| ARFGAP1 inhibitor | -5 | -9 | 4 | -12 | 0 | nt |
| ASAP1 GAP inh | 5 | -4 | 2 | -1 | 1 | nt |
| UUG fidelity | nt | nt | -1 | 6 | -5 | -1 |
| NRP1-CendR mod | 21* | 6 | 49* | -11 | 29* | nt |
| MC4R ag barr | -3 | 0 | -1 | -1 | -2 | nt |
| MC4R antag cAMP | -1 | 14 | 1 | 0 | -1 | nt |

(19) Cc1noc(C)c1NC(=O)N(C)C[C@H]1OCCCC[C@H](C)Oc2ccc(N(C)C)cc2C(=O)N([C@H](C)CO)C[C@H]1C
(20) CC1(C(=O)NCC2CCCCC2)CCN1CCc1ccccc1 (centres undefined)
(21) CC1(C(=O)NC2CCc3ccccc32)CCN1CCc1ccccc1 (centres undefined)
(22) Cc1noc(C)c1S(=O)(=O)Nc1ccc2c(c1)C(=O)N([C@@H](C)CO)C[C@H](C)[C@H](CN(C)C(=O)CCCN(C)C)OCCCC[C@H](C)O2
(23) FC(F)(F)c1ccc(N2CCN(Cc3ccc4c(c3)OCO4)CC2)nc1
(24) CCCNC(=O)C[C@@H]1C[C@H]2c3cc(NS(=O)(=O)c4ccccc4)ccc3O[C@H]2[C@@H](CO)O1

| entry no. | 19 | 20 | 21 | 22 | 23 | 24 |
| --- | --- | --- | --- | --- | --- | --- |
| ARFGAP1 inhibitor | nt | 9 | -10 | nt | -9 | nt |
| ASAP1 GAP inh | nt | -5 | -7 | nt | 2 | nt |
| UUG fidelity | 8 | -7 | -4 | 3 | 4 | -5 |
| NRP1-CendR mod | nt | 6 | 10 | nt | 0 | nt |
| MC4R ag barr | nt | 6 | 8.6* | nt | 9.2* | nt |
| MC4R antag cAMP | nt | 16 | 3 | nt | 2 | nt |

(25) O=c1[nH]c(/C=C/c2ccccc2[N+](=O)[O-])nc2ccccc12
(26) O=C(C[C@@H]1C[C@@H]2c3cc(NC(=O)C4CCC4)ccc3O[C@@H]2[C@H](CO)O1)NCc1cccnc1
(27) COc1ccc2c(c1)OC[C@H]1[C@H]2N2C(=O)CN(CC3CCCO3)C(=O)[C@@]2(C)[C@H]1c1ccccc1 (some centres undefined)
(28) C[C@@]12C(=O)N(CC3CCCO3)CC(=O)N1[C@@H]1c3ccccc3OC[C@@H]1[C@@H]2c1ccccc1 (some centres undefined)
(29) C[C@@H]1CCCCO[C@@H](CN(C)Cc2ccc(C(=O)O)cc2)[C@H](C)CN([C@@H](C)CO)C(=O)c2cc(NC(=O)Nc3cccc4ccccc34)ccc2O1
(30) O=C(N/N=C/c1cccc(Cl)c1Cl)Nc1ccccc1

| entry no. | 25 | 26 | 27 | 28 | 29 | 30 |
| --- | --- | --- | --- | --- | --- | --- |
| ARFGAP1 inhibitor | 12 | nt | 7 | -1 | nt | 4 |
| ASAP1 GAP inh | -4 | nt | 14 | 2 | nt | 3 |
| UUG fidelity | -30 | -11 | -2 | -12 | 16 | -8 |
| NRP1-CendR mod | -6 | nt | 26* | 4 | nt | -7 |
| MC4R ag barr | 8.8* | nt | -1 | 0 | nt | 0 |
| MC4R antag cAMP | -3 | nt | 8 | 11 | nt | 1 |

(31) O=C(N/N=C/c1ccc(Cl)cc1Cl)Nc1ccccc1
(32) COc1ccc(NC(=O)Nc2ccc3c(c2)[C@H]2C[C@H](CC(=O)N4CCc5ccccc5C4)O[C@@H](CO)[C@H]2O3)cc1
(33) Cc1ccc(C)c(OCCC(=O)OCC(=O)Nc2ccc(Cl)cn2)c1
(34) O=C(C[C@@H]1C=C[C@H](NC(=O)c2cccc(F)c2)[C@@H](CO)O1)NCc1ccc(Oc2ccccc2)cc1
(35) N#Cc1c2ccc(O)cc2n2ccccc12
(36) CC1=Nc2ccc(C)cc2/C1=C/c1c(N)n2oc(C)cc2nc1=O

| entry no. | 31 | 32 | 33 | 34 | 35 | 36 |
| --- | --- | --- | --- | --- | --- | --- |
| ARFGAP1 inhibitor | -10 | nt | 16 | nt | -7 | -4 |
| ASAP1 GAP inh | -7 | nt | -6 | nt | -5 | 7 |
| UUG fidelity | -22 | -4 | -22 | -15 | nt | 2 |
| NRP1-CendR mod | 4 | nt | -20 | nt | 31* | -74 |
| MC4R ag barr | 16* | nt | 9.5* | nt | 2 | 9.2*! |
| MC4R antag cAMP | -4 | nt | 4 | nt | -13 | 12 |

(37) Cc1ccc(S(=O)(=O)N(C)C[C@H]2Oc3c(cccc3N(C)C)C(=O)N([C@@H](C)CO)C[C@@H]2C)cc1
(38) NC(=O)C1CCN(c2nc(-c3ccccc3-c3ccccc3)cs2)CC1
(39) NC(=O)C1CCN(c2nc(-c3ccccc3N)cs2)CC1
(40) CC(=O)C[C@H](O)CC(=O)[C@H]1OC(=O)[C@H](C)C/C=C\Cc2ccccc21
(41) CC(C)[C@H](C)NC(=O)N(C)C[C@@H]1OCc2ccccc2-c2c(n(C)c3ccccc23)C(=O)N([C@H](C)CO)C[C@H]1C
(42) Cc1cccc(OCCCn2ccnc2)c1

| entry no. | 37 | 38 | 39 | 40 | 41 | 42 |
| --- | --- | --- | --- | --- | --- | --- |
| ARFGAP1 inhibitor | nt | -3 | -19 | 10 | nt | -5 |
| ASAP1 GAP inh | nt | 5 | 9 | 1 | nt | 11 |
| UUG fidelity | 10 | 3 | -14 | -14 | 48 | -11 |
| NRP1-CendR mod | nt | 13 | 24* | 25* | nt | 11 |
| MC4R ag barr | nt | -1 | -1 | -1 | nt | 1 |
| MC4R antag cAMP | nt | 5 | -7 | -3 | nt | 12 |

(43) Cc1cc(C)cc(OCCCn2ccnc2)c1
(44) C=C1C[C@@]23CCC4[C@@](C)(CCC[C@@]4(C)C(=O)O)C2CC[C@]1(O)C3 (some centres undefined)
(45) O=c1oc(/C=C/c2ccccc2)nc2sc3c(c12)CCC3
(46) COc1ccc(/C=C/c2nc3sc4c(c3c(=O)o2)CCC4)cc1

| entry no. | 43 | 44 | 45 | 46 |
| --- | --- | --- | --- | --- |
| ARFGAP1 inhibitor | -3 | 6 | 6 | 10 |
| ASAP1 GAP inh | 8 | -4 | -6 | 8 |
| UUG fidelity | 12 | -7 | -10 | -9 |
| NRP1-CendR mod | 27* | 32* | 25* | 130 |
| MC4R ag barr | 2 | 0 | -1 | 0 |
| MC4R antag cAMP | 10 | -1 | -6 | 7 |
